The target in one test is T1, LRH-1 LBD (Homo sapiens, UniProt O00482).
T1 construct: LRH-1 LBD (residues 299-541) in the pMSC7 vector was expressed in BL21 (DE3) pLysS E. coli; made in house; host or cells: E. coli BL21 (DE3) pLysS
Nature of the test: Thermofluor (DSF) assay, purified LRH-1 LBD-His protein. Format: binding. To be noted: 50 μM compound; relative to DLPC-bound LRH-1; read-out: ΔTm (mean +/− SEM) (° C.). On the procedure: Thermofluor assays—Purified LRH-1 LBD-His protein (0.2 mg/ml) was incubated overnight with 50 μM of each compound at 4° C. The final DMSO concentration in the reactions was 1%. SYPRO orange dye (Invitrogen) was then added at a 1:1000 dilution. Reactions were heated at a rate of 0.5° C. per minute, using a StepOne Plus Real Time PCR System (ThermoFisher). […] Data were analyzed by first subtracting baseline fluorescence (ligands+SYPRO with no protein) and then fitting the curves using the Bolzman equation (GraphPad Prism, v6) to determine the Tm. […]

By UniProt entry, the sequences of proteins in these tests, tags left out. Residues count along the entry.
UniProt O00482, 299-541: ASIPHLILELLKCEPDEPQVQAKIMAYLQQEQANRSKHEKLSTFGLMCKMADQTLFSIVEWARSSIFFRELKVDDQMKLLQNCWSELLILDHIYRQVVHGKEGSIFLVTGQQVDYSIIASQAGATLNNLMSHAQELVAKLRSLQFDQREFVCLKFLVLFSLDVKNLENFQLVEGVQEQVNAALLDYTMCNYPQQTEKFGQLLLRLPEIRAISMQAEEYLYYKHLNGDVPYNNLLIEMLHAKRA
UniProt O00482, whole entry: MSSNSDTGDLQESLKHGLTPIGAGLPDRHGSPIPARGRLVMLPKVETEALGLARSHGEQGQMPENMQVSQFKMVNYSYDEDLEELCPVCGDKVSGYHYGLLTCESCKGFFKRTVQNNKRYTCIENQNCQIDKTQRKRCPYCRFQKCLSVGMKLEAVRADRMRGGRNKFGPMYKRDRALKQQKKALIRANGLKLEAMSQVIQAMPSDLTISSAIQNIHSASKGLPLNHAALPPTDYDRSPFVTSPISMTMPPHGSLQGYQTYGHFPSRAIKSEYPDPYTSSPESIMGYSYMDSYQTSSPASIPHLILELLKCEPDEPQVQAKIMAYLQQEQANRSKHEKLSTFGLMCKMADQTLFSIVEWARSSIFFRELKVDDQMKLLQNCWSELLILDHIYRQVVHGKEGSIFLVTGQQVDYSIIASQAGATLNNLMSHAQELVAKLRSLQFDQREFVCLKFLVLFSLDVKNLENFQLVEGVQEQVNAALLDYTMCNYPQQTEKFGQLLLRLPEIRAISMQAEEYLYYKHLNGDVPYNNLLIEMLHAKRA

The next test concerns the target T2, LRH-1 (Homo sapiens, UniProt O00482).
T2 construct: The transfected plasmids included full-length LRH-1 in a pCI vector; expressed in transfected cells; host or cells: HeLa
Put plainly: Luciferase reporter assay (SHP-luc) in HeLa cells transfected with full-length LRH-1. Format: cell-based. To be noted: for EC50 (μM): HeLa cells, SHP-luc reporter, 24 hours, 0.03-30 μM. How it is done:
EC50 and Relative Activity values were calculated from luciferase reporter assays.

The text below walks through data of patent US12415770B2, “Modulators of liver receptor homologue 1 (LRH-1) and uses” (Emory University, priority 2017, dated 2025).

On to `C=C(c1ccccc1)[C@@]12CC[C@H](n3ccnn3)C1CC(CCCCCC)=C2c1ccccc1` (stereo partly drawn) [Compound 34-endo, (Endo or Exo) 5-hexyl-4-phenyl-3a-(1-phenylvinyl)-1,2,3,3a,6,6a-hexahydropentalen-1-yl)-1H-1,2,3-triazole], for which the ΔTm at 50 µM on LRH-1 LBD is 3.6 °C. Turning to `CCCCCCC1=C(c2ccccc2)[C@]2(C(=O)c3ccccc3)CC[C@@H](O)C2C1` (stereo partly drawn) [Compound 25-exo], the ΔTm at 50 µM at LRH-1 LBD stood at 1 °C.

Regarding `CCCCCCC1=C(c2ccccc2)[C@]2(Cc3ccccc3)CC[C@@H](O)C2C1` (mixture of isomers) [Compound 26-exo, (Exo)-3a-benzyl-5-hexyl-4-phenyl-1,2,3,3a,6,6a-hexahydropentalen-1-ol], the ΔTm at 50 µM at LRH-1 LBD is 1.4 °C. In the case of `C=C(Cc1ccccc1)[C@@]12CC[C@@H](O)C1CC(CCCCCC)=C2c1ccccc1` (mixture of isomers) [Compound 24, (Exo)-5-hexyl-4-phenyl-3a-(3-phenylprop-1-en-2-yl)-1,2,3,3a,6,6a-hexahydropentalen-1-ol], the ΔTm at 50 µM on LRH-1 LBD was -3.1 °C. Further, the “EC50 (μM)” value on LRH-1 is “cnc”. Moreover, the “Relative Efficacy” value at LRH-1 (fold increase over baseline (DMSO-treated cells) relative to the fold increase induced by RJW100) was −0.14. As to `C=C(c1ccccc1)[C@@]12CC[C@@H](n3ccnn3)C1CC(CCCCCC)=C2c1ccccc1` (stereo partly drawn) [Compound 34-exo, (Endo or Exo) 5-hexyl-4-phenyl-3a-(1-phenylvinyl)-1,2,3,3a,6,6a-hexahydropentalen-1-yl)-1H-1,2,3-triazole], at LRH-1 LBD, the ΔTm at 50 µM stood at 0.6 °C. The “EC50 (μM)” value on LRH-1 is “cnc”.
